Source: PubChem BioAssay AID602393 (Broad Institute, 2012)
This is a selection; strong and weak results do not stand in their true shares. Calls of active or inactive are those of the source. Rule as the data show it: active = activation above about 40%; inconclusive = no clear call, values can overlap the other calls; inactive = below that.

Test: raisers of Bmi1 knock-in reporter signal – mouse ES cells, Bmi1 luciferase knock-in, single point, esBAF inhibitor project, primary screen (AID 602393);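 also: 0% = median of the plate's neutral control wells and 100% = double that signal; a rise in the Bmi1 reporter signal indicates esBAF inhibition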
Settings: 24 h, at 12.5 µM, hits give high values, 100% = twice the neutral-well signal

| Structure (SMILES) | reporter increase |
| --- | --- |
| COc1ccc(C2=NCC(CBr)S2)cc1 (configuration not stated) | inactive: -9.71% |
| CC(=O)N1C2C3N(C(C)=O)C1C1N(C(C)=O)C(C(N1C(C)=O)N3C(C)=O)N2C(C)=O | inactive: 0.476% |
| O=[N+]([O-])c1cccc2n[nH]nc12 | inactive: -5.21% |
| CCc1nc2c(n1)c1c(non1O)c1c2no[n+]1[O-] | inactive: 0.254% |
| Nc1ccc([As](=O)(O)c2ccc(N)cc2)cc1 | inactive: -1.6% |
| CC(C)c1nc(Nc2ccccc2)n(P(=O)(N(C)C)N(C)C)n1 | inactive: -4.22% |
| c1cc(-c2nn[nH]n2)ccc1-c1nn[nH]n1 | inactive: -2.07% |
| CC1CCN(C(=O)Oc2c(Cl)cc(Cl)c3cccnc23)CC1 | inactive: 28.7% |
| O=P1(N(CCCl)CCCl)OCCCS1 (configuration not stated) | inactive: -2.23% |
| O=C(Nc1cc([As](=O)(O)O)ccc1O)c1ccccc1 | inactive: 1.77% |
| CC(C)(C)C(=O)NC(Sc1ccncn1)C(Cl)(Cl)Cl (configuration not stated) | inactive: 5.35% |
| O=[N+]([O-])c1cccc(NC2=NCC(CBr)S2)c1 (configuration not stated) | inactive: -1.33% |
| O=C(O)CNc1ccc([As](=O)(O)O)cc1 | inactive: -0.107% |
| O=C(O)c1ccccc1[As](=O)(O)O | inactive: -4% |
| CC(=O)Nc1ccc([As](=O)(O)O)cc1 | inactive: -2.17% |
| CCCC1OP(N)(=O)OCC1CC (configuration not stated) | inactive: -4.26% |
| CN(C)P(=O)(N(C)C)n1c(Nc2ccccc2)nnc1-c1ccccc1 | inactive: 15.8% |
| O=P(Nc1nc2ccc(Cl)cc2s1)(c1ccccc1)c1ccccc1 | inactive: -0.23% |
| CCOP(=O)(Nc1ccccc1)OCC | inactive: -9.64% |
| CN(C(=O)Cc1ccc(Cl)c(Cl)c1)[C@H]1CCCC[C@@H]1N1CCCC1 | inactive: -0.137% |
| Cc1ccc(NP(=O)(Oc2ccccc2F)Oc2ccccc2F)nc1 | inactive: -7.38% |
| Nc1cccc2ccc([As](=O)(O)O)cc12 | inactive: -5.7% |
| CN(C(=O)Cc1ccc(Cl)c(Cl)c1)[C@H]1CCCC[C@H]1N1CCCC1 | inactive: 1.58% |
| Cc1ccc(N/C(=N/P(=O)(N2CCOCC2)N2CCOCC2)N2CCOCC2)cc1 | inactive: -7.32% |

| Structure (SMILES) | reporter increase |
| --- | --- |
| Cc1ccc(OP(=O)(Nc2nccs2)Oc2ccc(C)cc2)cc1 | inactive: -4.58% |
| Clc1ccc(Cl)c(NC2=NCC(CBr)S2)c1 (configuration not stated) | inactive: 3.09% |
| CN1CCCC(OC(=O)C(c2ccccc2)c2ccccc2)C1 (configuration not stated) | inactive: -2.32% |
| CC(C)CC(=O)NC(Sc1ccc(Cl)cc1)C(Cl)(Cl)Cl (configuration not stated) | inactive: 0.93% |
| Oc1ccccc1CNc1ccccn1 | inactive: -2.79% |
| O=P1(Nc2nc3ccc(Cl)cc3s2)COc2ccccc2O1 (configuration not stated) | inactive: 22.9% |
| CCc1cc(O)c([N+](=O)[O-])c(C)c1[N+](=O)[O-] | inactive: -2.15% |
| CC(=O)c1ccc(N2CC2c2ccncc2)cc1 (configuration not stated) | inactive: 4.27% |
| Cc1ccccc1CN(C)C(=O)COC(=O)C(O)(c1ccccc1)c1ccccc1 | inactive: 13.1% |
| C[C@@H]1C=CCP(=O)(Oc2ccccc2)O1 (some centres not stated) | inactive: 2.5% |
| C[C@H]1OP(=O)(Oc2ccccc2)C[C@@H]2O[C@@H]21 (some centres not stated) | inactive: -6.34% |
| CC(=O)Nc1ccc([As](=O)(O)O)c(O)c1 | inactive: -5.33% |
| CC(=O)Nc1ccc(Oc2c([N+](=O)[O-])cc([N+](=O)[O-])cc2[N+](=O)[O-])cc1 | inactive: 2.1% |
| CCNC(=S)/N=C(\N)N[N+](=O)[O-] | inactive: -3.72% |
| O=P1(N(CCCl)CCCl)OCCC2CCCCN21 (configuration not stated) | inactive: -1.94% |
| COC(=O)c1cc2c(s1)N=C(c1ccccc1)N(C)P2(=O)N1CCOCC1 (configuration not stated) | inactive: -9.87% |
| O=C(OC1CN2CCC1CC2)c1ccccc1 (configuration not stated) | inactive: -2.08% |
| CCC(=O)N1C2C3N(C(=O)CC)C1C1N(C(=O)CC)C(C(N1C(=O)CC)N3C(=O)CC)N2C(=O)CC | inactive: -8.14% |
| CC(NC(=O)COC(=O)C(O)(c1ccccc1)c1ccccc1)c1ccccc1 (configuration not stated) | inactive: 0.218% |
| Nc1ccc(CCCCOc2ccccc2)cc1 | active: 66.5% |
| CN(C)C1(CNC(=O)c2ccc(Cl)c(S(N)(=O)=O)c2)CCCCC1 | inactive: 2.6% |
| O=P(Nc1ccccn1)(c1ccc(Br)cc1)c1ccc(Br)cc1 | inactive: -1.79% |
| O=P(Nc1nc2ccccc2s1)(c1ccccc1)c1ccccc1 | inactive: 10.3% |
| C[C@H]1OP(=O)(Oc2ccccc2)[C@H](O)[C@H](O)[C@H]1N=[N+]=[N-] (some centres not stated) | inactive: 0.265% |

| Structure (SMILES) | reporter increase |
| --- | --- |
| O=[N+]([O-])c1ncn(CCn2cnc([N+](=O)[O-])n2)n1 | inactive: 2.93% |
| O=[N+]([O-])c1ccc(O)c(/C=N/Nc2ccc([N+](=O)[O-])cc2[N+](=O)[O-])c1 | inactive: -51.4% |
| O=[As](O)(c1ccccc1)c1ccc(O)cc1 | inactive: 2.41% |
| Nc1ccc([As](=O)(O)c2ccc([N+](=O)[O-])cc2)cc1 | inactive: -9.21% |
| O=C(OC1CN2CCC1CC2)c1cccc(Cl)c1 (configuration not stated) | inactive: -8.36% |
| O=P(Nc1nccs1)(c1ccccc1)c1ccccc1 | inactive: -6.11% |
| c1nnnn1CCn1cnnn1 | inactive: 1.47% |
| CN(CCCl)Cc1cc(Cl)c(NC2=NCCN2)c(Cl)c1 | inactive: -3.45% |
| CCC1=CC2Cc3nc4ccc(Cl)cc4c(N)c3C(C1)C2 (configuration not stated) | inactive: 0.712% |
| O=P1(Nc2ccccn2)COc2ccccc2OC1 | inactive: 3.12% |
| CCOP(=O)(NC(=NC(C)c1ccccc1)NC(C)c1ccccc1)OCC (configuration not stated) | inactive: -5.47% |
| Clc1n[nH]nc1-c1nn[nH][15n]1 | inactive: -7.89% |
| O=P1(N(CCCl)CCCl)NCCC(C(F)(F)F)O1 (configuration not stated) | inactive: 1.78% |
| CN(C(=O)Cc1ccc(Cl)c(Cl)c1)[C@@H]1CCCC[C@H]1N1CCCC1 | inactive: -2.74% |
| CC(C)/C=N\N=C(\N)N[N+](=O)[O-] | inactive: -11% |
| Cc1nn(-c2ccccc2)c2c1P(=O)(N1CCOCC1)N(C)C(c1ccccc1)=N2 (configuration not stated) | inactive: 6.17% |
| Cc1ccc(C(=O)OC2CN3CCC2CC3)cc1 (configuration not stated) | inactive: -2.95% |
| CC1CCC(C(C)C)C(OP(=O)(Nc2ccccn2)c2ccccc2)C1 (configuration not stated) | inactive: -8.03% |
| O=C(/C=C/c1ccccc1)OC1CN2CCC1CC2 (configuration not stated) | inactive: -7.3% |
| CCCC1OP(=O)(Nc2ccccc2)OCC1CC (configuration not stated) | inactive: -5.42% |
| O=P1(Nc2ncccn2)COc2ccccc2OC1 | inactive: 0.516% |
| Cc1ccc(S(=O)(=O)N(CCCN)CCCc2c(C)nc(N)[nH]c2=O)cc1 | inactive: -2.16% |
| NS(=O)(=O)c1cccc(NC(=O)COC(=O)C(O)(c2ccccc2)c2ccccc2)c1 | inactive: 6.39% |
| O=P1(Nc2ccc(Br)cn2)COc2ccccc2OC1 | inactive: -2.35% |

| Structure (SMILES) | reporter increase |
| --- | --- |
| O=[As](O)(c1cccs1)c1cccs1 | inactive: -2.8% |
| CS(=O)(=O)c1cc([N+](=O)[O-])c2no[n+]([O-])c2c1 | inactive: -5.33% |
| CCOP1(=S)c2c(C)nn(CCC#N)c2N=C(c2ccccc2F)N1C (configuration not stated) | inactive: 12.9% |
| O=P(Nc1nccs1)(c1ccccc1)c1nc2ccccc2s1 (configuration not stated) | inactive: 15.5% |
| O=C(O)COc1ccc([As](=O)(O)O)cc1[N+](=O)[O-] | inactive: -2.92% |
| Nc1ccccc1[As](=O)(O)c1ccccc1 | inactive: -11.3% |
| NC(=O)Nc1ccc([As](=O)(O)O)cc1 | inactive: -2.01% |
| O=[N+]([O-])c1ccc2c(c1)nnn2O | inactive: -0.424% |
| CN(C(=O)Cc1ccc(Cl)c(Cl)c1)[C@H]1CC[C@@]2(CCCO2)C[C@@H]1N1CCCC1 | inactive: 1.36% |
| N#CCCN(C(=O)COC(=O)C(O)(c1ccccc1)c1ccccc1)c1ccc(F)cc1 | inactive: 3.5% |
| CCOP1(=S)c2c(C)nn(CCC#N)c2N=C(c2ccc(F)cc2)N1C (configuration not stated) | inactive: -4.48% |
| CN(C(=O)Cc1ccccc1)[C@@H]1CC[C@]2(CCCO2)C[C@H]1N1CCCC1 | inactive: 1.88% |
| CS(=O)(=O)c1ccc(Cl)c(NC(=O)COC(=O)C(O)(c2ccccc2)c2ccccc2)c1 | inactive: 2.66% |
| O=[As](O)(c1cccc(O)c1)c1cccc(O)c1 | inactive: -8.05% |
| Cc1cccc(OCC(=O)OC2CN3CCC2CC3)c1 (configuration not stated) | inactive: -1.94% |
| CCCOP(=S)(Nc1nc(N)cc(=O)[nH]1)OCCC | inactive: 0.851% |
| Cc1ccc(NCCc2c([N+](=O)[O-])cc([N+](=O)[O-])cc2[N+](=O)[O-])cc1 | inactive: -7.08% |
| Nc1cccc2c([As](=O)(O)O)cccc12 | inactive: 1.43% |
| O=C(OC1CN2CCC1CC2)C12CC3CC(CC(C3)C1)C2 (configuration not stated) | inactive: -2.23% |
| Cc1cc(=O)[nH]c(N[N+](=O)[O-])n1 | inactive: -3.19% |
| COc1cc(I)ccc1[As](=O)(O)O | inactive: -7.54% |
| O=P1(N(CCCl)CCCl)Nc2ccccc2N1 | active: 45.7% |
| COc1ccc(N/C(=N/P(=O)(N2CCOCC2)N2CCOCC2)N2CCOCC2)cc1 | inactive: -6.06% |
| O=[N+]([O-])c1cc(Oc2ccc([N+](=O)[O-])cc2C(F)(F)F)cc([N+](=O)[O-])c1 | inactive: 6.61% |

| Structure (SMILES) | reporter increase |
| --- | --- |
| C[As](=O)(O)c1cccc(C(=O)O)c1 | inactive: -3.18% |
| COc1cc(C(=O)NCC2(N3CCOCC3)CCCCC2)ccc1OCC(C)C | inactive: 1.33% |
| O=[N+]([O-])c1ccc(-c2cc([N+](=O)[O-])c(O)c([N+](=O)[O-])c2)cc1 | inactive: -0.213% |
| Cc1ccc(OP(=O)(Nc2ccc([N+](=O)[O-])cn2)Oc2ccc(C)cc2)cc1 | inactive: 0.412% |
| CC(C)c1ccc(OP(=O)(Nc2ccccn2)Oc2ccccc2F)cc1 (configuration not stated) | inactive: -12.7% |
| ClCCSc1nnc(-c2cccnc2)o1 | inactive: -2.58% |
| CCN(CC)C(=S)SC(NC=O)C(Cl)(Cl)Cl (configuration not stated) | inactive: -13.4% |
| O=C(OC1CN2CCC1CC2)c1cccc2[nH]cnc12 (configuration not stated) | inactive: 1.02% |
| CC1CCNP(=O)(N(CCCl)CCCl)O1 (configuration not stated) | inactive: -6.05% |
| O=C(O)C(O)c1ccc(N(CCCl)CCCl)cc1 (configuration not stated) | inactive: -9.15% |
| CCOC(=O)Nc1ccc([As](=O)(O)O)c(O)c1 | inactive: -3.47% |
| CCCCOc1ccc(C(=O)NCC2(N3CCCCC3)CCCCC2)cc1OC | inactive: -1.04% |
| COP(=O)(OC)N1CC1c1ccccc1 (configuration not stated) | inactive: -1.92% |
| CCOC(=O)Nc1cccc([As](=O)(O)O)c1 | inactive: -3.6% |
| O=[N+]([O-])c1ccc(Nc2ccc(Oc3ccc([N+](=O)[O-])cc3[N+](=O)[O-])cc2)c([N+](=O)[O-])c1 | inactive: -11.7% |
| COP1(=S)c2c(C)nn(CCC#N)c2N=C(c2ccc(F)cc2)N1C (configuration not stated) | inactive: -4.39% |
| O=C(COc1ccccc1)OC1CN2CCC1CC2 (configuration not stated) | inactive: -9.11% |
| O=C(Nc1ccncc1[N+](=O)[O-])c1ccc([N+](=O)[O-])cc1[N+](=O)[O-] | inactive: -13.2% |
| O=C(O)C(=O)c1ccc(N(CCCl)CCCl)cc1 | inactive: -16.9% |
| O=C(OC1CN2CCC1CC2)c1cccc([N+](=O)[O-])c1 (configuration not stated) | inactive: -8.39% |
| CSc1ccc(Nc2c([N+](=O)[O-])cc([N+](=O)[O-])cc2[N+](=O)[O-])cc1 | inactive: 3.54% |
